Literature values as cited in patent US6156316A, “Oncogene fusion protein peptide vaccines” (Sloan-Kettering Institute for Cancer Research, priority 1995, dated 2000).

Conditions: at the dose level proposed; cited from earlier work

## QS-21
  safety / toxicity: safe and relatively nontoxic
